Measurements taken from paper PMC6597546, “Identification of a potent benzoxaborole drug candidate for treating cryptosporidiosis” (Nature Communications, 2019).
Where “and” joins values, the source holds several entries; their conditions need not be identical. Equal entries are not always repeated.

Key:
[1] = test system: THP-1; assay: Cytotoxicity THP-1 (3d); format: cell-based; conditions: versus cytotoxicity in three cell lines, in all cases
[2] = test system: C. parvum DMC1 positive parasites; assay: Asexual-to-sexual stage conversion assay (DMC1 expression); format: cell-based, Cryptosporidium parvum
Procedure: The invasion assay, DNA replication assay, asexual to sexual stage conversion, and time-kill curve assays were performed using fluorescence microscopy to enumerate parasites and host cell nuclei. Staining protocols are individually described for each assay. Unless noted otherwise, the details of image acquisition were as follows. An inverted Nikon Eclipse Ti2000 microscope with an automated stage and Perfect Focus was used with NIS-Elements Advanced Research software (Nikon, USA, version 4.30.01) to image the wells. The microscope was programmed to focus on the center of each well and then take a 3 × 3 composite image per well using a 20 × (0.45 NA) objective. Images were exported as .tiff files and parasites and host nuclei counted using a custom macro on ImageJ (National Institutes of Health, version 1.52a). Data were analyzed using Microsoft Excel and GraphPad Prism (version 6.01). […] Amphotericin B (Sigma, catalog# A2942) was added to the culture media at 0.1 to 0.5 µg per mL for the DMC1 dose response assays.

[3] = test system: C. parvum (Bunch Grass Farms Iowa isolate); assay: Time-kill curve assay in HCT-8 cells; format: cell-based, Cryptosporidium parvum
Procedure: The invasion assay, DNA replication assay, asexual to sexual stage conversion, and time-kill curve assays were performed using fluorescence microscopy to enumerate parasites and host cell nuclei. Staining protocols are individually described for each assay. Unless noted otherwise, the details of image acquisition were as follows. An inverted Nikon Eclipse Ti2000 microscope with an automated stage and Perfect Focus was used with NIS-Elements Advanced Research software (Nikon, USA, version 4.30.01) to image the wells. The microscope was programmed to focus on the center of each well and then take a 3 × 3 composite image per well using a 20 × (0.45 NA) objective. Images were exported as .tiff files and parasites and host nuclei counted using a custom macro on ImageJ (National Institutes of Health, version 1.52a). Data were analyzed using Microsoft Excel and GraphPad Prism (version 6.01). Time-kill curve assays were used to assess if AN7973 is parasiticidal or parasitistatic for C. parvum. C. parvum Iowa isolate oocysts (Bunch Grass Farms, Deary, ID) were treated to induce excystation and added to >90% confluent HCT-8 cells in 384-well plates. […] The monolayers were then washed, fixed, and stained with Vicia villosa lectin and DAPI at the indicated time points, and imaged as for the C. parvum growth assay. Separate 384-well plates were used for each time point. Parasite numbers were normalized to host cell nucleus numbers and expressed as the percentage of host cells infected. Drug-induced parasite decay was isolated from the reduction in parasites over time that occurs spontaneously in the HCT-8 culture system by expressing the number of parasites as the percentage of the number of parasites present at each time point under control (DMSO-treated) conditions.

[4] = Rat toxicokinetics (TK) study; format: in vivo, Sprague-Dawley male rats; conditions: Day 1/Day 7

## CC1(C)OB(O)c2cc(NC(=O)c3ccc(-n4cccn4)cc3Cl)ccc21 [AN7973]
[1]
  selectivity index for inhibition of Cryptosporidium: greater than 50
[2]
  potency against asexual growth relative to asexual-to-sexual differentiation: four times more potently
[3]; 9 x EC90, 0 h exposure
  % C. parvum relative to DMSO control: 92.14% and 109.39% and 105.07% and 102.65%
[3]; 9 x EC90, 6 h exposure
  % C. parvum relative to DMSO control: 83.7% and 79.89% and 95.49% and 93.58%
[3]; 9 x EC90, 12 h exposure
  % C. parvum relative to DMSO control: 41.75% and 66.95% and 75.41% and 60.54%
[3]; 9 x EC90, 24 h exposure
  % C. parvum relative to DMSO control: 24.09% and 22.06% and 25.28% and 19.33%
[3]; 9 x EC90, 48 h exposure
  % C. parvum relative to DMSO control: 20.46% and 21.37% and 29.19% and 32.15%
[3]; 12 x EC90, 0 h exposure
  % C. parvum relative to DMSO control: 92.14% and 109.39% and 105.07% and 102.65%
[3]; 12 x EC90, 6 h exposure
  % C. parvum relative to DMSO control: 82.48% and 57.91% and 72.29% and 81.49%
[3]; 12 x EC90, 12 h exposure
  % C. parvum relative to DMSO control: 56.04% and 53.36% and 47.41% and 62.87%
[3]; 12 x EC90, 24 h exposure
  % C. parvum relative to DMSO control: 20.18% and 31.66% and 25.42% and 16.17%
[4]
  Accumulation index, AUC0-24h ratio: 0.91
  Accumulation index, Cmax ratio: 0.87
